Binding of CDR-mutated scFvs to a peptide of the spike HR2 region

Values reported by Engelhart et al. 2022, doi:10.1038/s41597-022-01779-4 (FLAb copy).

Binding partner: SARS-CoV-2 spike HR2 peptide, sequence PDVDLGDISGINAS.

Each scFv is VH, a 15-residue (Gly4Ser)3 linker, VL, as in the parent Ab-14, and differs from it in the CDRs of the light chain only.
VH: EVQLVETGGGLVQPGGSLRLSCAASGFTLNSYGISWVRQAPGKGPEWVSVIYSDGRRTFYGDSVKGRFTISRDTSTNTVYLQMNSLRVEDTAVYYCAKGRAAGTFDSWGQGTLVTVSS
VL: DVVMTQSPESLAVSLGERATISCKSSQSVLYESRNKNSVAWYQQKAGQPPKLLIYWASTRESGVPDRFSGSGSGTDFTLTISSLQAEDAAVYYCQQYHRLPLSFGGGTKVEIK

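The parent was found by panning a naive human phage display library on the peptide. AAYL50 was designed without a model: most single CDR substitutions and a random sample of double and triple ones. Affinity was read by AlphaSeq, a pooled yeast mating assay with surface-displayed partners. Binding brings cells together so that they mate, and sequencing counts the barcode pairs among the diploids. Scores were corrected for input abundance and mapped to Kd with protein pairs of known affinity run in the same pool. There are three technical replicates.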

Changes read parent residue, position, new residue, counted from the first residue of the VL shown. The read-out is the apparent dissociation constant on a log10 scale (nM): the lower, the stronger. Replicates are averaged; those with no signal do not enter the mean. Where no diploid with the target was found in that replicate, the entry reads "ND": below detection, most likely a poor binder, though not proof of it. Parent in this assay: reference entry 0.65, copy in this library 1.68. Background: pairings of library AAYL50 with three empty control strains gave a value in 18% of cases (median 4.19, 5th percentile 2.99). Values in that range, when seen in few replicates, are hard to tell from nonspecific mating. Also given: how often the same scFv was detected with the empty control strains.

Variant V29W/S62T/Q96D gave 0.81, 1.10, 1.00 (mean 0.97; controls 1 of 9).
Variant S58F/S62A/R99V gave 2.53, 2.49, 2.90 (mean 2.64; controls 4 of 9).
Variant Q96D/R99V gave 0.57, 0.77, 0.78 (mean 0.71; controls 1 of 9).
Variant V39Q/Q95Y/P101Q gave ND, ND, ND (controls 0 of 9).
Variant K24Y/A40M/R99W gave ND, 3.61, 5.99 (mean 4.80; controls 4 of 9).
Variant Q27F/A40I gave ND, ND, ND (controls 1 of 9).
Variant A57T/S62V/Q96T gave 1.06, 1.18, 1.12 (mean 1.12; controls 5 of 9).
Variant E32I/Q95A gave ND, ND, 4.37 (controls 3 of 9).
Variant R34Q/W56M/Q96R gave ND, ND, 5.17 (controls 1 of 9).
Variant L30C/P101S/L102Y gave 1.08, 1.12, 0.92 (mean 1.04; controls 1 of 9).
Variant R60L/L100G/P101M gave 2.25, 1.75, 2.56 (mean 2.19; controls 3 of 9).
Variant L30Q/E61T gave 1.10, 1.28, 1.21 (mean 1.20; controls 0 of 9).
Variant K36T/A40V/R99I gave ND, ND, ND (controls 2 of 9).
Variant S38K/V39E/R60I gave ND, ND, ND (controls 0 of 9).
Variant S25F/S26P gave -0.17, 0.19, -0.07 (mean -0.02; controls 2 of 9).
Variant N35M/K36G/V39F gave ND, 4.00, 5.00 (mean 4.50; controls 4 of 9).
Variant V39H/A40H/E61K gave 5.47, ND, ND (controls 2 of 9).
Variant A57Q/T59H/R60Y gave ND, ND, ND (controls 0 of 9).
Variant S58V/Q96D/S103F gave 4.69, 3.23, 3.50 (mean 3.80; controls 2 of 9).
Variant Y31F/N35T/V39H gave ND, ND, ND (controls 1 of 9).
Variant N35C/W56V/S62Y gave ND, ND, ND (controls 0 of 9).
Variant N35W/W56L/E61F gave 1.95, 2.16, 2.44 (mean 2.18; controls 0 of 9).
Variant S25F/R34A/A40W gave ND, 3.06, ND (controls 2 of 9).
Variant K24N/E61T/Y97N gave ND, ND, 4.42 (controls 2 of 9).
Variant Q96W/L102Q/S103G gave 1.15, 1.17, 1.33 (mean 1.22; controls 0 of 9).
Variant S28L/N35W/S62H gave ND, ND, ND (controls 0 of 9).
Variant K36W/R60W/Y97N gave ND, ND, ND (controls 0 of 9).
Variant N37P/W56V/H98N gave ND, ND, ND (controls 1 of 9).
Variant Y31K/Q96S/Y97M gave ND, 4.52, ND (controls 2 of 9).
Variant S25N/S28A/K36G gave 1.31, 1.55, 1.59 (mean 1.48; controls 0 of 9).
Variant S25D/T59G/S62H gave ND, ND, ND (controls 2 of 9).
Variant S28H/N35H/E61F gave 1.96, 2.14, 2.12 (mean 2.07; controls 4 of 9).
Variant L30V/S38Q/H98P gave 2.56, 1.97, 2.68 (mean 2.40; controls 4 of 9).
Variant K24V/V39L/L102E gave 1.45, 1.41, 1.51 (mean 1.46; controls 2 of 9).
Variant V29P/R34H gave 1.30, 1.45, 1.57 (mean 1.44; controls 2 of 9).
Variant N37R/R60G/Y97T gave ND, ND, ND (controls 0 of 9).
Variant V29M/N37L/L100S gave ND, 1.77, ND (controls 1 of 9).
Variant N37L/Q96W/H98N gave ND, 2.95, 4.29 (mean 3.62; controls 0 of 9).
Variant K24Q/S33Y/S62H gave ND, 4.21, ND (controls 0 of 9).

The opening 6 entries, copied out:

{"changes": "V29W/S62T/Q96D", "log10 Kd, replicates": "0.81, 1.10, 1.00", "log10 Kd (nM), mean": "0.97", "control signals": "1 of 9"}
{"changes": "S58F/S62A/R99V", "log10 Kd, replicates": "2.53, 2.49, 2.90", "log10 Kd (nM), mean": "2.64", "control signals": "4 of 9"}
{"changes": "Q96D/R99V", "log10 Kd, replicates": "0.57, 0.77, 0.78", "log10 Kd (nM), mean": "0.71", "control signals": "1 of 9"}
{"changes": "V39Q/Q95Y/P101Q", "log10 Kd, replicates": "ND, ND, ND", "log10 Kd (nM), mean": "ND", "control signals": "0 of 9"}
{"changes": "K24Y/A40M/R99W", "log10 Kd, replicates": "ND, 3.61, 5.99", "log10 Kd (nM), mean": "4.80", "control signals": "4 of 9"}
{"changes": "Q27F/A40I", "log10 Kd, replicates": "ND, ND, ND", "log10 Kd (nM), mean": "ND", "control signals": "1 of 9"}